# AlphaSeq binding of Ab-14 light chain variants to a spike HR2 peptide

The measurements come from Li et al. 2023 (doi:10.1038/s41467-023-39022-2) through the FLAb antibody collection.

The target is the same throughout: PDVDLGDISGINAS, from the HR2 region of SARS-CoV-2 spike.

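The starting antibody came from a phage panning campaign against this peptide. This is the validation round: designs drawn from the data on random variants, tested in the same kind of assay. Several design methods are mixed in this list. The assay is AlphaSeq: two haploid yeast populations carry antibody and antigen on their surface. Binding brings cells together so that they mate, and sequencing counts the barcode pairs among the diploids. Read counts were normalised to the haploid input and turned into Kd by a linear fit to BCL2-family pairs of known affinity, for each replicate. There are six technical replicates.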

Ab-14 is the parent antibody, in scFv form: VH, then a (GGGGS)3 linker, then VL. The heavy chain is unchanged in all variants.
VH: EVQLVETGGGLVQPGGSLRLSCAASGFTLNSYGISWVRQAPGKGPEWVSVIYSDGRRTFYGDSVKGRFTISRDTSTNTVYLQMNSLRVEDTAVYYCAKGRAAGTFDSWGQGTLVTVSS
VL: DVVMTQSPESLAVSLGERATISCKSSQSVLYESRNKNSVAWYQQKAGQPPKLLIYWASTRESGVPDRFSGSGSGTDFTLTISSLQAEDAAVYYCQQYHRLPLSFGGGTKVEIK

The parent's light chain CDRs are KSSQSVLYESRNKNSVA, WASTRES, QQYHRLPLS; each variant's own CDRs replace them letter for letter. Variants here have more than six changes. The Kd shown is the geometric mean over detected replicates; a lower Kd is a better binder.

* KLRQSVHIESFNKNNVA, EMTTRES, QSYDRLPLS -> 11 nM (6 of 6 replicates; controls 1 of 18)
* TISQSYMMENQFKNSVA, QASTRES, QCYDRLPLS -> 9.2 nM (6 of 6 replicates; controls 2 of 18)
* KAQQSNEYESRNKWSVA, NASTRED, QQYHRLPLS -> 680 pM (6 of 6 replicates; controls 1 of 18)
* TIGQTLMSGVRNRSNVA, EVSQRLN, QQYDRLPLL -> 18 nM (6 of 6 replicates; controls 1 of 18)
* TIGQTLMIGTRNRSNVA, EVSQRLN, QQYDRLPLL -> 180 nM (6 of 6 replicates; controls 0 of 18)
* TITGMVEEIETRQKNIA, EGEFRCM, QQYSRLPLS -> 180 nM (4 of 6 replicates; controls 0 of 18)
* KIGMTLNQLMHKKNNVA, DLVMRAN, QQYFRLPLS -> 4.3 nM (6 of 6 replicates; controls 0 of 18)
* TISGVMQQMTHSKNNVA, EVSERLD, QQYFRLPLE -> 1.9 nM (6 of 6 replicates; controls 0 of 18)
* KLYQSVGTLSHNKQSIA, DMERRED, QQYHRLPLS -> 2.7 nM (6 of 6 replicates; controls 5 of 18)
* KLSGSMLYEERNSNSVA, HASHRES, QQYHRLPLS -> 2.0 nM (6 of 6 replicates; controls 0 of 18)
* ALFQKGFELHGDRQSIA, HSDTRAA, QQYSRLPLA -> 1.1 nM (6 of 6 replicates; controls 1 of 18)
* HITMGMYVSGRHHSSIA, QAETRAK, QQYDRLPLA -> 2.9 nM (6 of 6 replicates; controls 0 of 18)
* SLSRDVGDETNHYENVA, QEHIRAN, QDYSRLPLS -> 3.6 nM (6 of 6 replicates; controls 0 of 18)
* KLGYNTGTESFRKDNIA, DNDLRED, QQYDRLPLS -> 3.1 nM (6 of 6 replicates; controls 0 of 18)
* KLSQSVMFMSGVYNSVA, QMSTRAE, QQYNHLPLS -> 1.2 nM (6 of 6 replicates; controls 0 of 18)
* KMSFVYGYESTNSNSVA, DASTRED, QQYHRLPLS -> 730 pM (6 of 6 replicates; controls 0 of 18)
* KLSLFYRVETREKNSVA, DNSTRES, QDYDRLPLS -> 540 nM (1 of 6 replicates; controls 2 of 18)
* KMMQSQLYEDRASNAVA, NASQRES, QQYHRLPLS -> 880 pM (6 of 6 replicates; controls 1 of 18)
* KLSSISGTEKVHGNNVA, EMETRER, QQYNRLPLA -> 870 pM (6 of 6 replicates; controls 0 of 18)
* KISQMYRYEMQNHSSIA, EANTREQ, QSYHRLPLS -> 160 nM (3 of 6 replicates; controls 1 of 18)
* KVVQSVDYEPRNKQSVA, DASTRLS, QQYHRLPLS -> 1.3 nM (6 of 6 replicates; controls 1 of 18)
* QVRDEQWAEGMNIQSIA, EGEVRKD, QQYNRLPLS -> 14 nM (6 of 6 replicates; controls 0 of 18)
* KVSPSVQYEQRQFNSVA, EASTREQ, QQYHRLPLS -> 1.6 nM (6 of 6 replicates; controls 2 of 18)
* TISQSTYWESFNKNNVA, QTSTRCE, QDYDRLPLS -> 450 nM (3 of 6 replicates; controls 1 of 18)
* MIAGSLESQEANQAPVA, SATCREP, QQYSQLPLM -> 18 nM (6 of 6 replicates; controls 1 of 18)
* MISQLYNFGTFAINSVA, QASLRCN, QQYDRLPLM -> 93 nM (2 of 6 replicates; controls 1 of 18)
* MISQLFMYGSRHYNSVA, QASTRES, QQYDRLPLI -> 21 nM (6 of 6 replicates; controls 0 of 18)
* QYSMNLTIYDQEQGNVA, HGEMRTE, QQYHKLPLS -> 21 nM (2 of 6 replicates; controls 0 of 18)
* KISMLLNMTFEASNNVA, EMATREK, QQYNRLPLS -> 2.7 nM (6 of 6 replicates; controls 1 of 18)
* KLESEQYHFGADHQSIA, DAHISMN, QQYMHLPFT -> 780 pM (6 of 6 replicates; controls 0 of 18)
* MISQLYNMGQFAINSVA, QASTRND, QQYDRLPLM -> 15 nM (6 of 6 replicates; controls 0 of 18)
* KVDQSVLLKSRNKNAVA, QASTRES, QDYHRLPLS -> 5.6 nM (6 of 6 replicates; controls 2 of 18)
* RIFYNEEQDLRHNSSIA, NGSARVF, QQYYMLPLS -> 21 nM (6 of 6 replicates; controls 2 of 18)
* MISMVMNTMTRHGNNVA, DLTERED, QQYFRLPLS -> 150 nM (3 of 6 replicates; controls 1 of 18)
* KLAMSVMLESRWCNSVA, SASTREE, QQYHRLPLS -> 9.5 nM (6 of 6 replicates; controls 0 of 18)
* HLNLEYMQMMKDHNSIA, DTEHKTK, QQYFRLPIS -> 2.7 nM (6 of 6 replicates; controls 0 of 18)
* KLSQSVMGGSRNKNSVA, NASQREQ, QQYHRLPLS -> 930 pM (6 of 6 replicates; controls 3 of 18)
* MISQLYNMGSFAKNSVA, QASERNN, QQYDRLPLM -> 3.2 nM (6 of 6 replicates; controls 2 of 18)
* TISQSAQQELHNKNSVA, DLNVRGS, QQYDRLPLS -> 1.6 nM (6 of 6 replicates; controls 0 of 18)
* HMSMLTLQGMRHRNSVA, QMTTRVN, QQYDHLPLA -> 23 nM (6 of 6 replicates; controls 1 of 18)

The closing 3 entries, repeated:

{"CDR-L1": "MISQLYNMGSFAKNSVA", "CDR-L2": "QASERNN", "CDR-L3": "QQYDRLPLM", "apparent Kd": "3.2 nM", "detected": "6/6", "control signals": "2/18"}
{"CDR-L1": "TISQSAQQELHNKNSVA", "CDR-L2": "DLNVRGS", "CDR-L3": "QQYDRLPLS", "apparent Kd": "1.6 nM", "detected": "6/6", "control signals": "0/18"}
{"CDR-L1": "HMSMLTLQGMRHRNSVA", "CDR-L2": "QMTTRVN", "CDR-L3": "QQYDHLPLA", "apparent Kd": "23 nM", "detected": "6/6", "control signals": "1/18"}

As a blank, each scFv also met three strains without target: over all light chain designs, 4% of these pairings were detected, typically at 430 nM and seldom below 38 nM. For each scFv, signals with the empty controls are counted beside the result. The authors' rule: three or more of the six replicates give a measured affinity, fewer mean a poor binder. Of ten entries with the parent sequence, four were seen in most replicates (averages 2.2 nM to 240 nM), three in one and three in none, so single entries are noisy. A sequence measured in both rounds can read differently, since the two assays cover different ranges.